Experimental data as given in article PMC2195672 (The Journal of Experimental Medicine, 1999).

Test system: HBV epitope-specific CTL lines
Format: cell-based
Settings: two CTL lines from HHD-transgenic mice; synthetic peptides; data not shown

FLPSDFFPSV [core 18-27]
Efficiency of CTL recognition relative to peptide 17-27: 10 fold
